Results reported in patent US6846637B1, “Fas peptides and antibodies for modulating apoptosis” (IMED AB, priority 1998, dated 2005).

Columns and labels:
[1] = system: antibodies in human sera of healthy blood donors; experiment: ELISA reactivity of human serum to Fas peptides; type: binding
Description: The derived amino acid sequence (a.a.1-179) of the Fas protein (Itoh et al., 1991) was used for simultaneous multiple solid-phase peptide synthesis (Houghten et al, 1985) of 20 amino acid long peptides (with a 10-residue overlap).
(§1) These peptides were used in ELISA of 30 human sera obtained from healthy blood donors and the specificity of the assay was confirmed by peptide competition ELISA as described (Leonov et al., 1994). Peptides Fp5 (Gly40-Val59), Fp11 (Glu100-Cys119), and Fp17 (Trp160-Val179) were selected as positively reacting with human sera and were used in subsequent experiments.

Jurkat leukemia T cells = settings: peptide; Fadeel et al., 1995; cited from earlier work
[2] = system: immunoglobulin preparations derived from pooled human serum (Gammagard); experiment: ELISA reactivity of immunoglobulin preparations (Gammagard) to Fas peptides; type: binding; settings: O.D. 490 nm classes
Experimental: as §1
Similar experiments were performed with commercially available immunoglobulin preparations derived from pooled human serum enriched by immunosorbence for immunoglobulin fractions (Gammagard-Baxter, Hyland, Glendale, Calif. USA).

EINCTRTQNTKCRCKPNFFC [Fp11]
Reactivity to Fas peptides in ELISA, Human serum ([1]; human serum, O.D. 490 nm classes): +++ (+++ > 1.0 O.D.) | reactivity with human sera ([1]; sera of 30 healthy blood donors, in words): reactive | blocking of the apoptotic activity of CH-11 (Jurkat leukemia T cells): can block | Reactivity to Fas peptides in ELISA, Immunoglobulin preparations (Gammagard) [2]: +++ (+++ > 1.0 O.D.)
